# From patent US10246466B2, “Diaryl macrocycles as modulators of protein kinases” (TP THERAPEUTICS, INC., priority 2014, dated 2019)
# Sequences of proteins named here, by UniProt entry; tags and fusion partners are left off. A change or cut given only in a name is not applied to a line headed by its entry.
# UniProt O60674: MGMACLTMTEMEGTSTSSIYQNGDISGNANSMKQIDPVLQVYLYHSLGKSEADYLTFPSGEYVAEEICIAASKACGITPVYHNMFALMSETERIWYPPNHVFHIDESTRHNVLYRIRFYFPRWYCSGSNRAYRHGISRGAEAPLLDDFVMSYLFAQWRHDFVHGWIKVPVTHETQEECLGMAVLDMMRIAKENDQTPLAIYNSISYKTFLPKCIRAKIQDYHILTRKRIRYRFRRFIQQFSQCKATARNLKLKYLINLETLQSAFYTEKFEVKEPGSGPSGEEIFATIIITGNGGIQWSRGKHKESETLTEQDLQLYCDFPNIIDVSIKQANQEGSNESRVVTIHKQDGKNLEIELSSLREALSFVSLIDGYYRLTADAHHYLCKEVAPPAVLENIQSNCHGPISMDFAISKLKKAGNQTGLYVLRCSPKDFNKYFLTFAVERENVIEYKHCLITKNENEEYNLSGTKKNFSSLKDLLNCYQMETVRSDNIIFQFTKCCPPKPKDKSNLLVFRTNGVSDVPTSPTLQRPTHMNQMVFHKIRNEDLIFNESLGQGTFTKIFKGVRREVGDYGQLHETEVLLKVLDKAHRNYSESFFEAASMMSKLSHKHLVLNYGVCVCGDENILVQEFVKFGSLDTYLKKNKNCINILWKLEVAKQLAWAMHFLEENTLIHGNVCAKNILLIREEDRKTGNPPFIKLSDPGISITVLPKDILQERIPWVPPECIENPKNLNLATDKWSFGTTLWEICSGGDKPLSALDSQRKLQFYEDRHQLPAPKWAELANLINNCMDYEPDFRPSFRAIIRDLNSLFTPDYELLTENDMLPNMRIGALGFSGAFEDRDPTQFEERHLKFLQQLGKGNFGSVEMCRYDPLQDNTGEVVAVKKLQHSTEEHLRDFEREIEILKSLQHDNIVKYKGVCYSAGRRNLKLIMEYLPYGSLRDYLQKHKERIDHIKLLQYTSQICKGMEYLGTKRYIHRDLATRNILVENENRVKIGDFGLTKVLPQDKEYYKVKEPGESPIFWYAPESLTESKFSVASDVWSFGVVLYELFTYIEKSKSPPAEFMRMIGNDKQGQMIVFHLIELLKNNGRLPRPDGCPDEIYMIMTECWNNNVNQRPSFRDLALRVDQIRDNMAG
# Molecular target: JAK2 (Homo sapiens (Human), UniProt O60674)
# Test: KINOMEscan kinase binding assay (DiscoveRx)
# Description: Kinase binding assays were performed at DiscoveRx using the general KINOMEscan Kd Protocol (Fabian, M. A. et al., “A small molecule-kinase interaction map for clinical kinase inhibitors,” Nat. Biotechnol. 2005, 23(3):329-36). For most assays, kinase-tagged T7 phage strains were prepared in an E. coli host derived from the BL21 strain. E. coli were grown to log-phase and infected with T7 phage and incubated with shaking at 32° C. until lysis. The lysates were centrifuged and filtered to remove cell debris. The remaining kinases were produced in HEK-293 cells and subsequently tagged with DNA for qPCR detection. Streptavidin-coated magnetic beads were treated with biotinylated small molecule ligands for 30 minutes at room temperature to generate affinity resins for kinase assays. The liganded beads were blocked with excess biotin and washed with blocking buffer (SeaBlock (Pierce), 1% BSA, 0.05% Tween 20, 1 mM DTT) to remove unbound ligand and to reduce nonspecific binding. […] All reactions were performed in polystyrene 96-well plates in a final volume of 0.135 mL. The assay plates were incubated at room temperature with shaking for 1 hour and the affinity beads were washed with wash buffer (1×PBS, 0.05% Tween 20). […] The kinase concentration in the eluates was measured by qPCR.
structure (smiles),measurement,value
"C[C@H]1CNC(=O)c2cnn3ccc(nc23)N[C@H](C)c2cc(F)ccc2O1 [Example 93, (7S,13R)-11-fluoro-7,13-dimethyl-6,7,13,14-tetrahydro-1,15-ethenopyrazolo[4,3-f][1,4,8,10]benzoxatriazacyclotridecin-4(5H)-one]",Kd,0.082 nM
